Measurements published in PubChem BioAssay AID1229 (Sanford-Burnham Center for Chemical Genomics, 2008).
The list shows a part of the results. Activity calls are given as the source filed them.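 The calls were made as follows: active = diaphorase activity raised at least twofold by the compound at 20 µM; inactive = activation factor below 2.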

Assay: compounds boosting diaphorase resazurin reduction – biochemical, uHTS, resorufin fluorescence, counter-screen for diaphorase-coupled primary assays, primary screen (AID 1229)
Details: Diaphorase/resazurin coupled assay, 16 min, at 20 µM; hits give high values, 1 = vehicle wells, 0 = NADH-free wells
Summary of the method: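 Assay system: Purified diaphorase enzyme from Clostridium kluyveri | Amount: Enzyme 0.07 U/mL final | Dosing: Compound 20 µM once, DMSO 1% | Timing: 16 min reaction at room temperature | Detection: Fluorescence, excitation 544 nm and emission 590 nm | Evaluation: Higher resorufin formation from activation or reduction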
In the case of `CCOP(C)(=S)SCC(=O)NC(C)C(=O)O` (centres undefined), the activation factor is reported as inactive: 0.8. In the case of `CCOC(=O)c1ccc(NP(C)(=O)Oc2ccc(OC)cc2)cc1` (centres undefined), the activation factor is reported as “inactive”. With `CP(=O)(Nc1ccccn1)Oc1ccc(Cl)cc1` (centres undefined) the activation factor was inactive: 1.1. In the case of `CP(=O)(Oc1ccccc1)OC(c1ccccc1)C(F)(F)F` (centres undefined), the activation factor is reported as “inactive”. With `Cc1cccc(C)c1OP(C)(=O)Nc1ccc(SC(F)(F)F)cc1` (centres undefined) the activation factor was inactive: 0.7. For `Cc1cc(C)cc(OP(C)(=O)Nc2ccc(SC(F)(F)F)cc2)c1` (centres undefined), the activation factor was inactive: 0.7. In the case of `CP(=O)(NC(=O)Nc1ccccc1)Oc1ccccc1` (centres undefined), the activation factor is reported as “inactive”. With `O=C(COc1ccccc1)OC1CN2CCC1CC2` (centres undefined) the activation factor was “inactive”. In the case of `CP(=S)(Nn1cnnc1)Oc1ccccc1` (centres undefined), the activation factor is reported as “inactive”. With `COc1ccccc1OP(C)(=O)Nc1ccccc1` (centres undefined) the activation factor was “inactive”. In the case of `CP(=O)(Nc1ccccc1Br)Oc1ccccc1` (centres undefined), the activation factor is reported as “inactive”. In the case of `Cc1cc(SC(NC(=O)c2ccccc2)C(Cl)(Cl)Cl)nc(C(C)C)n1` (centres undefined), the activation factor is reported as “inactive”. In the case of `ClCCSc1nnc(-c2cccnc2)o1`, the activation factor is reported as “inactive”. In the case of `CCOC(=O)c1ccc(NP(C)(=O)Oc2ccccc2)cc1` (centres undefined), the activation factor is reported as “inactive”. For `Cc1ccc(NP(C)(=O)Oc2ccccc2)c(C)c1` (centres undefined), the activation factor was inactive: 1. With `COc1ccccc1OP(C)(=O)Nc1ccc(C)cc1` (centres undefined) the activation factor was inactive: 0.8. In the case of `O=[N+]([O-])c1cc([N+](=O)[O-])c(-c2ccn[nH]2)s1`, the activation factor is reported as “inactive”. With `COc1ccc(OP(C)(=O)Nc2cccc(F)c2)cc1` (centres undefined) the activation factor was inactive: 1. With `CC(C)NC(=O)NP(=O)(Oc1ccccc1)Oc1ccccc1` the activation factor was “inactive”. With `COc1ccccc1OP(C)(=O)Nc1cc(Cl)ccc1C` (centres undefined) the activation factor was “inactive”. For `Cc1cc(C)cc(OP(C)(N)=O)c1` (centres undefined), the activation factor was “inactive”. With `Cc1cccc(C)c1OP(C)(N)=O` (centres undefined) the activation factor was inactive: 1.1. In the case of `CC(C)(C)c1ccc(OP(C)(=O)Nc2ccc(SC(F)(F)F)cc2)cc1` (centres undefined), the activation factor is reported as inactive: 0.7. For `O=[N+]([O-])c1ccc2c(c1)C=Nc1ccccc1O2`, the activation factor was “inactive”. In the case of `CCN(CC)CCCOC(=O)C(O)(c1ccccc1)c1ccccc1`, the activation factor is reported as “inactive”. With `COc1ccc2nc(NP(=O)(c3ccccc3)c3ccccc3)sc2c1` the activation factor was “inactive”. For `CP(=O)(Nc1cccc(Br)c1)Oc1ccccc1` (centres undefined), the activation factor was inactive: 0.8. For `Cc1cc(C)cc(OP(C)(=O)Nc2ccccn2)c1` (centres undefined), the activation factor was “inactive”. In the case of `Cc1ccc(C)c(NP(C)(=O)Oc2ccccc2)c1` (centres undefined), the activation factor is reported as inactive: 1. With `CCOP(=O)(Nc1cccc2ccccc12)OCC` the activation factor was “inactive”. With `COc1cc(C(=O)NCC2(N3CCOCC3)CCCCC2)cc(Cl)c1OC(C)C` the activation factor was “inactive”. In the case of `Cc1cc(C)cc(OP(C)(=O)Nc2ccc(C)cc2C)c1` (centres undefined), the activation factor is reported as “inactive”. For `Cc1cccc(OCC(=O)OC2CN3CCC2CC3)c1` (centres undefined), the activation factor was “inactive”. With `CCOC(=O)c1ccc(NP(C)(=O)Oc2cc(C)cc(C)c2)cc1` (centres undefined) the activation factor was inactive: 1. In the case of `CCOP1(=S)c2c(C)nn(CCC#N)c2N=C(c2ccc(F)cc2)N1C` (centres undefined), the activation factor is reported as “inactive”. For `CC1=NCCc2c1[nH]c1ccccc21.O=[N+]([O-])c1cc([N+](=O)[O-])c(O)c([N+](=O)[O-])c1`, the activation factor was inactive: 1.1. For `O=[N+]([O-])c1ccc2c(c1)nnn2O`, the activation factor was “inactive”. With `O=P(Nc1nccs1)(c1ccccc1)c1nc2ccccc2s1` (centres undefined) the activation factor was “inactive”. With `CCOP1(=S)c2c(C)nn(CCC#N)c2N=C(c2ccccc2F)N1C` (centres undefined) the activation factor was “inactive”. For `CN1CCCCC1COC(=O)C1(O)c2ccccc2CCc2ccccc21` (centres undefined), the activation factor was “inactive”. With `COc1ccccc1OP(C)(=O)Nc1c(C)cccc1C` (centres undefined) the activation factor was “inactive”. With `CP(=O)(Nc1ccc(SC(F)(F)F)cc1)Oc1ccccc1` (centres undefined) the activation factor was inactive: 1. For `CCCOc1ccc(NP(C)(=O)Oc2ccc(Cl)cc2)cc1` (centres undefined), the activation factor was inactive: 1. In the case of `Cc1ccc(OCC(=O)OC2CN3CCC2CC3)cc1` (centres undefined), the activation factor is reported as “inactive”. With `CN(C)C1(CNC(=O)c2ccc(S(C)(=O)=O)cc2)CCCCC1` the activation factor was “inactive”. With `Cc1nc2ccc3ccccc3c2s1.O=[N+]([O-])c1cc([N+](=O)[O-])c(O)c([N+](=O)[O-])c1` the activation factor was “inactive”. In the case of `O=[N+]([O-])c1cc([N+](=O)[O-])c(-n2nnc3ccccc32)c([N+](=O)[O-])c1`, the activation factor is reported as “inactive”. For `O=P1(Nc2ccccn2)COc2ccccc2OC1`, the activation factor was “inactive”. In the case of `CP(=O)(Nc1ccc2c(c1)OCCO2)Oc1ccccc1` (centres undefined), the activation factor is reported as “inactive”. For `Cc1ccccc1NP(C)(=O)Nc1ccccc1C`, the activation factor was inactive: 1. In the case of `CC(C)C(=O)NC(Sc1ccccc1)C(Cl)(Cl)Cl` (centres undefined), the activation factor is reported as “inactive”. For `c1nnnn1CCn1cnnn1`, the activation factor was “inactive”. For `CCOP(C)(=S)SCC(=O)NC(C)(CC)C(=O)O` (centres undefined), the activation factor was “inactive”. In the case of `O=[N+]([O-])c1cc([N+](=O)[O-])c(NCC2CCS(=O)(=O)C2)c([N+](=O)[O-])c1` (centres undefined), the activation factor is reported as inactive: 0.8. With `CC(=O)NC(SC(=S)N(C)C)C(Cl)(Cl)Cl` (centres undefined) the activation factor was “inactive”. For `COc1ccc(OP(C)(=O)Nc2cccc(Br)c2)cc1` (centres undefined), the activation factor was “inactive”. For `COc1ccc(NP(C)(=O)Oc2ccccc2OC)cc1` (centres undefined), the activation factor was inactive: 1. For `CN(C)CCOC(=O)C(O)(c1ccccc1)C1CCCCC1` (centres undefined), the activation factor was inactive: 1. In the case of `CCC(=O)N1C2C3N(C(=O)CC)C1C1N(C(=O)CC)C(C(N1C(=O)CC)N3C(=O)CC)N2C(=O)CC`, the activation factor is reported as “inactive”. For `CCN(CC)CCCOC(=O)C(O)(c1ccccc1)C1CCCCC1` (centres undefined), the activation factor was inactive: 1. For `Cc1ccc(OP(=O)(Nc2ccccn2)Oc2ccc(C)cc2)cc1`, the activation factor was “inactive”. For `CC(=O)NC(SC(=S)N(CC(C)C)CC(C)C)C(Cl)(Cl)Cl` (centres undefined), the activation factor was “inactive”. For `COC(=O)c1cc2c(s1)N=C(c1ccccc1)N(C)P2(=O)N1CCOCC1` (centres undefined), the activation factor was “inactive”. With `CP(=O)(Nc1ccccc1)Oc1ccc(F)cc1` (centres undefined) the activation factor was inactive: 1. For `CCOC(=O)NC(Sc1ccccc1)C(Cl)(Cl)Cl` (centres undefined), the activation factor was “inactive”. In the case of `CCNC(=S)/N=C(\N)N[N+](=O)[O-]`, the activation factor is reported as “inactive”. With `COc1ccc(OP(C)(=O)Nc2ccc(SC(F)(F)F)cc2)cc1` (centres undefined) the activation factor was inactive: 1. In the case of `CCOC(=O)c1ccc(NP(C)(=O)Oc2ccc(F)cc2)cc1` (centres undefined), the activation factor is reported as inactive: 1. With `O=C(OCCN1CCN(CCOCc2ccccc2)CC1)C(O)(c1ccccc1)c1ccccc1` the activation factor was “inactive”. With `O=P1(Nc2nc3ccc(Cl)cc3s2)COc2ccccc2O1` (centres undefined) the activation factor was “inactive”. With `CC(C)c1ccc(OP(C)(=O)Nc2ccc(SC(F)(F)F)cc2)cc1` (centres undefined) the activation factor was inactive: 0.7. In the case of `CC(C)(C)C(=O)NC(Sc1ccccc1)C(Cl)(Cl)Cl` (centres undefined), the activation factor is reported as “inactive”. For `CP(=O)(Nc1ccccc1F)Oc1ccccc1` (centres undefined), the activation factor was inactive: 1. With `O=[N+]([O-])c1cc([N+](=O)[O-])c(Nc2ccccn2)c([N+](=O)[O-])c1` the activation factor was “inactive”.
